From publication PMC8882856
pIC50, pKd: −log10 of the molar value. Like-named read-outs stand apart in the source and are kept apart here. One block for each molecule: values may come before it.

Protein sequences, listed by entry. Tags and fused reporters are not part of them.
UniProt P18825, whole entry: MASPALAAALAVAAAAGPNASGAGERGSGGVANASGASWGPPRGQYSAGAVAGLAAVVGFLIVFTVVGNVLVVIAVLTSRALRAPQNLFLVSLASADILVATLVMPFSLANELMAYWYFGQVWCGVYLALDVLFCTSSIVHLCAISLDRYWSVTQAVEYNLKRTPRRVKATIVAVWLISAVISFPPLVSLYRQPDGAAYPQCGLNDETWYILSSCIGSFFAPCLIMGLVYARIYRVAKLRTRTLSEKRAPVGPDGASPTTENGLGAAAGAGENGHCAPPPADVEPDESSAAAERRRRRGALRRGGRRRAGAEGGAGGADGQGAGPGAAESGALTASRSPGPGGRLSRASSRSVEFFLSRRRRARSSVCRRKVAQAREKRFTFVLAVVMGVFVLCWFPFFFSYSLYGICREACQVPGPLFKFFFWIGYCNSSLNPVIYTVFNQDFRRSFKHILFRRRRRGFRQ
UniProt P18089, whole entry: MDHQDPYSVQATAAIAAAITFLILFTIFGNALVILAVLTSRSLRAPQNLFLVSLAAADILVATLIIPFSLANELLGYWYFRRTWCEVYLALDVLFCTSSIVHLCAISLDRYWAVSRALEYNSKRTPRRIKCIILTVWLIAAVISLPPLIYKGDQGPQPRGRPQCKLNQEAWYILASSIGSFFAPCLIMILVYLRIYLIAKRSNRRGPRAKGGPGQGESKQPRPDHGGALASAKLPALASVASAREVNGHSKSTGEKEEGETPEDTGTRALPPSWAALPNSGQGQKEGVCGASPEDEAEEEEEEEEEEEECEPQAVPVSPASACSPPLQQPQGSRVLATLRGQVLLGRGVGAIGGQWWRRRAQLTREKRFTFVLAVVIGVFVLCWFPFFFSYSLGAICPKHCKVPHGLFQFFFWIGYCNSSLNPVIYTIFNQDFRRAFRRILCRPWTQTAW
UniProt P08913, whole entry: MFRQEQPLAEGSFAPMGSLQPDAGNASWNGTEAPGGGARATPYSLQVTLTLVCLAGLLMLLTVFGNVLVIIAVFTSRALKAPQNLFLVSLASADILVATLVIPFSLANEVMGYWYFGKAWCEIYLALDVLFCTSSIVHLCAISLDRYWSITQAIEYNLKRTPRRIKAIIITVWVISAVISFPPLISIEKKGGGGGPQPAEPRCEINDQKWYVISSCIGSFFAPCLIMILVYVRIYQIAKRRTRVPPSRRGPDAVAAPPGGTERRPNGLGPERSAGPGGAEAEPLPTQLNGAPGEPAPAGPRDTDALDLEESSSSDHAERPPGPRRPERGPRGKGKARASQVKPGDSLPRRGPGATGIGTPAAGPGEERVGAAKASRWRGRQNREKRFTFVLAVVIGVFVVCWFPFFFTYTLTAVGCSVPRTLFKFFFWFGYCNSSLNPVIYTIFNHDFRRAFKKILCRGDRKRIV

Assays:
human α2C‐adrenoceptor [1] = target: T1, human α2C‐adrenoceptor (Homo sapiens, UniProt P18825); assay: ^3H‐rauwolscine whole cell competition binding, CHO‐α2C cells
human α1A‐adrenoceptor = assay: whole cell binding at α1A‐adrenoceptor, identical technique, previous study [33]
human β2‐adrenoceptor = human β2‐adrenoceptor (Homo sapiens, UniProt P07550)
human α2B‐adrenoceptor [2] = target: T2, human α2B‐adrenoceptor (Homo sapiens, UniProt P18089); assay: cell-based
human α2A‐adrenoceptor [3] = target: T3, human α2A‐adrenoceptor (Homo sapiens, UniProt P08913); assay: cell-based
human α2C‐adrenoceptor [4] = target: T1, human α2C‐adrenoceptor; assay: cell-based
human α2B‐adrenoceptor [5] = target: T2, human α2B‐adrenoceptor; assay: ^3H‐rauwolscine whole cell competition binding, CHO‐α2B cells
human α2A‐adrenoceptor [6] = target: T3, human α2A‐adrenoceptor

SMILES: C[C@H](Cc1cc2c(c(C(N)=O)c1)N(CCCO)CC2)NCCOc1ccccc1OCC(F)(F)F [silodosin]
Selectivity ratio α2A vs α2C (higher affinity for α2C) (human α2C‐adrenoceptor [1]): 4.3
α1A selectivity over α2 or β1 or β2‐adrenoceptors (human α1A‐adrenoceptor): > 500
α1A selectivity window compared to the other adrenoceptors (human α1A‐adrenoceptor): > 100 fold

pIC50 (human β2‐adrenoceptor): < 5.00
pKd (human α2B‐adrenoceptor [2]): 5.81
pKd (human α2A‐adrenoceptor [3]): 5.95
SMILES: O=C1NCCN1CCN1CCC(c2cn(-c3ccc(F)cc3)c3ccc(Cl)cc23)CC1 [sertindole]

pKd (human α2B‐adrenoceptor [2]): 7.87
SMILES: O=C1NCN(c2ccccc2)C12CCN(CC1COc3ccccc3O1)CC2 (centres unmarked) [spiroxatrine]

pKd (human α2C‐adrenoceptor [4]): 6.34
pKd (human α2B‐adrenoceptor [2]): 5.78
SMILES: COc1ccccc1N1CCN(CCCNc2cc(=O)n(C)c(=O)n2C)CC1 [urapidil]

SMILES: COC(=O)C1=C(C)NC(C)=C(C(=O)NCCCN2CCC(c3ccccc3)(c3ccccc3)CC2)C1c1ccc([N+](=O)[O-])cc1 (centres unmarked) [SNAP5089]
pIC50 (human α2B‐adrenoceptor [5]): < 5.00
pKd (human α2C‐adrenoceptor [1]): 5.65

pKd (human α2A‐adrenoceptor [6]): 7.24
SMILES: COc1cccc2c1CCC[C@H]2CN(C)CCc1ccc2ccoc2c1.CS(=O)(=O)O [A80426]

pIC50 (human β2‐adrenoceptor): < 4.00
SMILES: CC(CN(C)C)CN1c2ccccc2CCc2ccccc21 (centres unmarked) [trimipramine]

pKd (human α2A‐adrenoceptor [3]): 6.36
SMILES: O=C1Cc2cc(CCN3CCN(c4nsc5ccccc45)CC3)c(Cl)cc2N1 [ziprasidone]
